Consider one molecule from patent US9073974 (University of California, dated 2015).

Chains of the proteins cited; added tags and fusions are not shown. Residues count along the entry.
UniProt P06756, 31-1048, chain 1 of 2: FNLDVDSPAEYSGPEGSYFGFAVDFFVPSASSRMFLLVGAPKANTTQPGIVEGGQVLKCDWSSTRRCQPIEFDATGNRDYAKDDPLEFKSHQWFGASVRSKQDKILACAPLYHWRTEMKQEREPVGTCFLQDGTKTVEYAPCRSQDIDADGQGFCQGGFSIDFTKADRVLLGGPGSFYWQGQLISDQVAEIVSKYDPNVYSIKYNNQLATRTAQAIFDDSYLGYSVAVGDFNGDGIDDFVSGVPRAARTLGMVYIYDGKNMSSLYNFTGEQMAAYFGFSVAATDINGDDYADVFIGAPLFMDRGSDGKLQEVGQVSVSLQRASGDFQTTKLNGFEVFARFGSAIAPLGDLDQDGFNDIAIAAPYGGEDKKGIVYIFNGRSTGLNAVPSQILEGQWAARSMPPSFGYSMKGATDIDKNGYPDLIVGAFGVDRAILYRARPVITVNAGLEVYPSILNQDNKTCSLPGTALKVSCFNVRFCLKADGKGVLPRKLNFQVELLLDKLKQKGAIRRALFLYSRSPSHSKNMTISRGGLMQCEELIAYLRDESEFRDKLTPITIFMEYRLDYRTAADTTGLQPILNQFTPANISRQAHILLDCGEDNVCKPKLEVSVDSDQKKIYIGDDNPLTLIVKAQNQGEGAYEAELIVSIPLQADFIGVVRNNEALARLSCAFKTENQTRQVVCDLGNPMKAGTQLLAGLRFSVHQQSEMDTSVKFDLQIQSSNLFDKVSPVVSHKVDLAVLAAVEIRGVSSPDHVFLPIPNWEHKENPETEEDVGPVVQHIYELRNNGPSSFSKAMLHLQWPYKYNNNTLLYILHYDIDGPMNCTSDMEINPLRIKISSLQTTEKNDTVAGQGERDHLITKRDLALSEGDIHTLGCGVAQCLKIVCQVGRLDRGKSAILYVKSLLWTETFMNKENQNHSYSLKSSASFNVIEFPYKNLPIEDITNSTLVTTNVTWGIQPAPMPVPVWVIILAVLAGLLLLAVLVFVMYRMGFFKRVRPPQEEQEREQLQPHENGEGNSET
αvβ3 integrin, UniProt P05106, 27-788, chain 2 of 2: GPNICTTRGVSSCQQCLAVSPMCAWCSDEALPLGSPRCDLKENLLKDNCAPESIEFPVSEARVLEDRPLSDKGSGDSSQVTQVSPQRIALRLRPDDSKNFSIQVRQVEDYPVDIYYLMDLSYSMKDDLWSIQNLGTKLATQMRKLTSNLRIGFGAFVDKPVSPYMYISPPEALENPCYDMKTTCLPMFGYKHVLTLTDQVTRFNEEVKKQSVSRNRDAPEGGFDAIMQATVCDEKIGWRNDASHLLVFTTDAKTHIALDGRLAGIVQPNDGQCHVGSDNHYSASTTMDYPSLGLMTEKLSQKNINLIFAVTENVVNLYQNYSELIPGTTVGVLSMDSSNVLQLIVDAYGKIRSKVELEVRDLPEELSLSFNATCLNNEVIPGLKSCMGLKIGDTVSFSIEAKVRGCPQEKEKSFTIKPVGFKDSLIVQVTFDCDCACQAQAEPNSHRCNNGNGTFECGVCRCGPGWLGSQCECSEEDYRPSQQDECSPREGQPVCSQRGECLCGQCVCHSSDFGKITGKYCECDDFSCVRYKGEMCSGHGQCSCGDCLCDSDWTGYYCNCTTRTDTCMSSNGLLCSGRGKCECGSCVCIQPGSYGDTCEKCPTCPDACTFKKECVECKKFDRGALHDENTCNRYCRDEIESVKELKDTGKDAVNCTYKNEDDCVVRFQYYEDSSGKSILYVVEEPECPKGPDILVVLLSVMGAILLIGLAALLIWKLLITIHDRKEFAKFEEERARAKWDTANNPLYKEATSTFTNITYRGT

This assay addresses T1, αvβ3 integrin (human, UniProt P06756 31-1048; P05106 27-788).
T1 construct: whole, on cells; Same entry used for αvβ3-K562, U-87 MG and A375M cells; also called αvβ3-K562; αvβ3 transfected K562 cells
As to the kind of experiment: flow cytometry, competition with FITC-Echistatin on αvβ3-K562 cells.

B1: cyclo (RGDyK)-Bio (peptide)
peptide: RGDYK
modifications: D-Tyr4; head-to-tail cyclic; Lys5 side chain joined through succinyl and one Ebes linker to Lys(biotin) amide
notes: made by the same procedure as the cyclo(RGDfK) conjugate; also called Biotinylated Cyclo(RGDyK)
By IC50 is commonly meant the concentration at which inhibition is half-maximal. The low end stands for higher potency, the high end for lower potency. As for B1, the IC50 turned out to be 1.35 µM. In other words, the single-digit micromolar range.
